Our source for the Ki values is patent publication US7947730B2, “Piperidinium and pyrrolidinium derivatives as ligands for the muscarinic M3 receptor” (dated 2011).

Amino acid sequences for entries named in this document (tags omitted).
UniProt P20309, whole entry, looked up: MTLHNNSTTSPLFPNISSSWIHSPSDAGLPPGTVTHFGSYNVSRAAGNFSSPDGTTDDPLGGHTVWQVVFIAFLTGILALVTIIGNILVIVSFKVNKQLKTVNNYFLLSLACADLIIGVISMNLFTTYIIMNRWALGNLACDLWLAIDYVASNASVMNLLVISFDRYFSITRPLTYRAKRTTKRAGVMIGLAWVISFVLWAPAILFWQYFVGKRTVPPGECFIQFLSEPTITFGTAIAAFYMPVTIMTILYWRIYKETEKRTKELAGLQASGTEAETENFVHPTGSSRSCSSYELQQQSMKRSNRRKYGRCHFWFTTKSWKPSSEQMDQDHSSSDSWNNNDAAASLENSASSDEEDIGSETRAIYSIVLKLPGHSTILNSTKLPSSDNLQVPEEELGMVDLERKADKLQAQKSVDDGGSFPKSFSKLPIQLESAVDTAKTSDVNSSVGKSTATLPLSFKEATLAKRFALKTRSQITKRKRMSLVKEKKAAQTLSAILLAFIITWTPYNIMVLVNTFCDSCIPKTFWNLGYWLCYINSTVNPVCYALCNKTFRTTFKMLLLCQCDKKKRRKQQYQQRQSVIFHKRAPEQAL

The target in this assay is human muscarinic acetylcholine M3 receptor (Homo sapiens, UniProt P20309). The assay can be described thus: competitive filtration binding assay with [3H] n-methyl scopolamine (NMS). The conditions noted are these: read-out: M3 Ki; membranes from CHO cells transfected with human M3 receptor; [3H]NMS 0.25 nM; 17 hours at room temperature; Cheng-Prusoff correction.
Usually Ki stands for a dissociation constant, usually derived from enzyme kinetics or from competition with a known ligand. On to `C[N+]1(CC(=O)c2ccccc2)CCC(COC(=O)C(O)(c2ccccc2)c2ccccc2)CC1` (centres unmarked), for which the Ki amounted to 3.7 nM. Turning to `C[N@@+]1(CCCc2ccccc2)CCC[C@@H](OC(=O)C(O)(c2cccs2)c2cccs2)C1`, the Ki came out at 0.2 nM. Regarding `C[N+]1(CCc2ccccc2)CCC[C@@H]1COC(=O)C(O)(c1ccccc1)c1ccccc1` (some centres unmarked), the Ki was determined as 0.39 nM.

On to “(1R,3R)-3-(2-Hydroxy-2,2-dithiophen-2-yl-acetoxy)-1-methyl-1-(2-phenoxy-ethyl)-piperidinium bromide”, for which the Ki came to 0.75 nM. With `C[N+]1(CCOc2ccccc2)CCC(OC(=O)C(O)(c2ccccc2)c2ccccc2)CC1` (centres unmarked), the Ki came out at 1.4 nM.

`C[N@+]1(CCOc2ccccc2)CC[C@H](OC(=O)C(O)(c2cccs2)c2cccs2)CC1`: the Ki was 0.44 nM. As for `C[N@+]1(CCOc2ccccc2)CC[C@H](OC(=O)C(O)(c2ccccc2)c2ccccc2)CC1`, the Ki came out at 1.3 nM.

As to `C[N@@+]1(CCCc2ccccc2)CCC[C@@H](OC(=O)C(O)(c2ccccc2)c2ccccc2)C1`, the Ki was 0.55 nM.

Take `C[N@@+]1(CCOc2ccccc2)CCC[C@@H](OC(=O)C(O)(c2ccccc2)c2ccccc2)C1`: the Ki stood at 0.64 nM.

Regarding `C[N+]1(CCCOc2ccccc2)CCC[C@H]1COC(=O)C(O)(c1cccs1)c1cccs1` (some centres unmarked), the Ki turned out to be 0.68 nM. Take `C#CC[N+]1(C)CCC(OC(=O)C(O)(c2cccs2)c2cccs2)CC1` (centres unmarked): the Ki is 0.33 nM. As for `C#CC[N+]1(C)CCC(OC(=O)C(O)(c2ccccc2)c2ccccc2)CC1` (centres unmarked), the figure is 0.41 nM; as for `CC(=O)OCC[N+]1(C)CCC(COC(=O)C(O)(c2cccs2)c2cccs2)CC1` (centres unmarked), 0.88 nM. As for `CCCCCC#CC[N+]1(C)CCC[C@H]1COC(=O)C(O)(c1ccccc1)c1ccccc1` (some centres unmarked), the figure is 2.14 nM.
